Reference: ChEMBL document CHEMBL1821711, “Design and synthesis of novel arylpiperazine derivatives containing the imidazole core targeting 5-HT(2A) receptor and 5-HT transporter” (J Med Chem, 2011)

Sequences of proteins named here, by UniProt entry; tags and fusion partners are left off. A change or cut given only in a name is not applied to a line headed by its entry.
UniProt P31645, whole entry: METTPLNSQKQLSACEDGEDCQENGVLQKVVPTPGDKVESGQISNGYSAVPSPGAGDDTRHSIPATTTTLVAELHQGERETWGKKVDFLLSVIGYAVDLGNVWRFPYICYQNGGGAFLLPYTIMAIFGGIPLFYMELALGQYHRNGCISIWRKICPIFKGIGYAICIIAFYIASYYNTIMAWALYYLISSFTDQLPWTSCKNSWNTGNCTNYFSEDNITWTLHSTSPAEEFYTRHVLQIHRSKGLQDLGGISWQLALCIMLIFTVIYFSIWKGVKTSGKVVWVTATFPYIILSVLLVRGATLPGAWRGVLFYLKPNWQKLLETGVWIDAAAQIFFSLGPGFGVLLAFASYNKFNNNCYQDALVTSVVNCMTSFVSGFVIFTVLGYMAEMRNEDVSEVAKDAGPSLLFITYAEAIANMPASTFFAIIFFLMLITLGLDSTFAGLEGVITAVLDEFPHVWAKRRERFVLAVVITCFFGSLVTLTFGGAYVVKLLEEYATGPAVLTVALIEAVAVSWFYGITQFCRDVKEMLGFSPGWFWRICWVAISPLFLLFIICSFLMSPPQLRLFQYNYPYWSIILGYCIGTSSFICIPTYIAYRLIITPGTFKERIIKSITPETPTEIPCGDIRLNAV
UniProt P28335: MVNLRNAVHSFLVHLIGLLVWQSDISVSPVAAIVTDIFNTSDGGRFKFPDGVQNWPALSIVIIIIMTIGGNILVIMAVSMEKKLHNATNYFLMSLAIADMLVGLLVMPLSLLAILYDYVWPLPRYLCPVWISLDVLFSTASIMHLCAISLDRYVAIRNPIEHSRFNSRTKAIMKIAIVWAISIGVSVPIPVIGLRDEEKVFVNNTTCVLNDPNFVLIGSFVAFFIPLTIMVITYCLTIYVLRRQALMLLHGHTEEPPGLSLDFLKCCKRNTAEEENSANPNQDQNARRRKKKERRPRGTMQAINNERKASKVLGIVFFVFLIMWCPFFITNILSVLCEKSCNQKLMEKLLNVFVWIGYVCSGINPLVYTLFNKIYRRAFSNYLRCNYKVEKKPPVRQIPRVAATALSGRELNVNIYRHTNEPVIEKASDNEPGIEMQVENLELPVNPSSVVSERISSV

Target: Sodium-dependent serotonin transporter (Homo sapiens, UniProt P31645)
Assay: biochemical
Assay type: cell-based, HEK293

In order of falling IC50:
1. Cc1c(Cl)cccc1N1CCN(CCCNC(=O)c2nc(-c3ccccc3)n(-c3ccc(F)cc3)c2C)CC1  282 nM
2. Cc1c(C(=O)NCCCN2CCN(c3cccc(Cl)c3Cl)CC2)nc(-c2ccccc2)n1-c1ccccc1F  200 nM
3. Cc1c(C(=O)NCC(O)CN2CCN(c3cccc(Cl)c3Cl)CC2)nc(-c2ccccc2)n1-c1ccc(F)cc1 (centres undefined)  195 nM
4. CCCc1nc(C(=O)NCCCN2CCN(c3cccc(C)c3C)CC2)cn1-c1ccc(F)cc1  188 nM
5. Cc1cccc(N2CCN(CCCNC(=O)c3nc(-c4ccccc4)n(-c4ccc5c(c4)OCCO5)c3C)CC2)c1C  185 nM
6. Cc1c(Cl)cccc1N1CCN(CCCNC(=O)c2nc(-c3ccccc3)n(-c3ccccc3)c2Cn2cncn2)CC1  182 nM
7. COc1ccc(-n2c(-c3ccccc3)nc(C(=O)NCCCN3CCN(c4cccc(Cl)c4Cl)CC3)c2C)cc1  76 nM
8. CCCc1nc(C(=O)NCCCN2CCN(c3cccc(Cl)c3C)CC2)cn1-c1ccc(Cl)cc1  66 nM
9. CCCc1nc(C(=O)NCCCN2CCN(c3cccc(Cl)c3C)CC2)c(C)n1-c1ccccc1OC  55 nM
10. Cc1cccc(N2CCN(CCCNC(=O)c3cn(-c4ccccc4)c(-c4ccccc4)n3)CC2)c1C  50.5 nM
11. Cc1c(Cl)cccc1N1CCN(CC(O)CNC(=O)c2nc(C)n(C3CCCC3)c2C)CC1 (centres undefined)  39.1 nM
12. Cc1nc(C(=O)NCCCN2CCN(c3cccc(Cl)c3Cl)CC2)c(C)n1C1CCCC1  35 nM
13. CCCc1nc(C(=O)NCCCN2CCN(c3cccc(Cl)c3C)CC2)c(C)n1-c1ccc(F)cc1  28 nM
14. CCCc1nc(C(=O)NCCCN2CCN(c3cccc(C)c3C)CC2)c(C)n1-c1ccccc1OC  28 nM
15. COc1ccc(-n2c(-c3ccccc3)nc(C(=O)NCCCN3CCN(c4cccc(Cl)c4C)CC3)c2C)cc1  25 nM
16. CCCn1c(C)nc(C(=O)NCCCN2CCN(c3cccc(Cl)c3Cl)CC2)c1C  18 nM
17. Cc1c(Cl)cccc1N1CCN(CCCNC(=O)c2nc(-c3ccccc3)n(-c3ccccc3)c2C)CC1  17.8 nM
18. CCCc1nc(C(=O)NCCCN2CCN(c3cccc(C)c3C)CC2)cn1-c1ccccc1  16.8 nM
19. CCCc1nc(C(=O)NCCCN2CCN(c3cccc(Cl)c3C)CC2)c(C)n1-c1ccc2c(c1)OCCO2  14 nM
20. Cc1c(Cl)cccc1N1CCN(CCCNC(=O)c2nc(C)n(C3CCCC3)c2C)CC1  9.53 nM
21. CCCc1nc(C(=O)NCCCN2CCN(c3cccc(C)c3C)CC2)c(C)n1-c1ccc(F)cc1  6.6 nM
22. Cc1cccc(N2CCN(CCCNC(=O)c3nc(C)n(-c4ccc5c(c4)OCCO5)c3C)CC2)c1C  6.08 nM
23. CCCc1nc(C(=O)NCCCN2CCN(c3cccc(C)c3C)CC2)c(C)n1-c1ccc2c(c1)OCCO2  5 nM
24. Cc1c(Cl)cccc1N1CCN(CCCNC(=O)c2nc(C)n(-c3ccc4c(c3)OCCO4)c2C)CC1  2.7 nM

Target: 5-hydroxytryptamine receptor 2C (Homo sapiens, UniProt P28335)
Assay: biochemical
Assay type: cell-based, CHO-K1

Compared with `Cc1c(C(=O)NCCCN2CCN(c3cccc(Cl)c3Cl)CC2)nc(-c2ccccc2)n1-c1ccccc1`, `Cc1c(Cl)cccc1N1CCN(CC(O)CNC(=O)c2nc(-c3ccccc3)n(-c3ccc(F)cc3)c2C)CC1` (racemic) is higher in IC50: 109 nM for the first, > 10000 nM for the second. The first is the more potent here.

`CCCc1nc(C(=O)NCCCN2CCN(c3cccc(C)c3C)CC2)c(C)n1-c1ccc2c(c1)OCCO2` and `CCCc1nc(C(=O)NCC(O)CN2CCN(c3cccc(Cl)c3C)CC2)c(C)n1-c1ccc2c(c1)OCCO2` (centres undefined) are within 1.5-fold of each other in IC50: 237 nM for the first, 284 nM for the second.

`Cc1c(Cl)cccc1N1CCN(C[C@H](O)CNC(=O)c2nc(-c3ccccc3)n(-c3ccc(F)cc3)c2C)CC1` was tested, and the IC50 was 479 nM.
